The entries are a selection whose mix differs from that of the whole data set. Active and inactive are the calls of the source.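 The calls were made as follows: active = primary screen hit whose fluorescence ratio, in both repeats, exceeds the weak agonist control mean by 3 SD; inactive = the rest.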
test system: TRPC4 (transient receptor potential cation channel C4 beta), mouse; assay: potentiation of DAMGO EC20 TRPC4 response – cell-based, second round, Fluo-4, HEK293 TRPC4beta/mu-opioid, 1 µM, confirmation (AID 2554); settings: DAMGO EC20, Fluo-4 calcium flux, at 1 µM; active compounds read high

| Compound | potentiation |
| --- | --- |
| CCN(CC)CCCOC(=O)C(O)(c1ccccc1)c1ccccc1 | active: 18% |
| CN(C)C1(CNC(=O)c2ccc(Cl)c(S(N)(=O)=O)c2)CCCCC1 | inactive |
| CN(C)CCOC(=O)C(O)(c1ccccc1)C1CCCC1 (stereo not drawn) | inactive |

Reference: PubChem BioAssay AID2554 (Johns Hopkins Ion Channel Center, 2010)
